In ChEMBL document CHEMBL3124896, “Optimization of the lactam side chain of 7-azaindenoisoquinoline topoisomerase I inhibitors and mechanism of action studies in cancer cells” (2014):

Experiment: Resistance ratio of GI50 for vinblastine-resistant human KBV1 cells to GI50 for human KB 3.1 cells
Format: functional
In short: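 Relative resistance = GI50 in the resistant subline divided by GI50 in the parental line. Both GI50s came from 72 h continuous-exposure MTS growth assays, each based on at least two independent determinations.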

COc1cccc2c1C(=O)c1c(O)c3c(c(O)c1C2=O)C[C@@](O)(C(=O)CO)C[C@@H]3O[C@H]1C[C@H](N)[C@H](O)[C@H](C)O1 [DOXORUBICIN]
RatioGI50: >1.48
